Sequences of proteins named here, by UniProt entry; tags and fusion partners are left off. Residues count along the entry.
UniProt P19438, 30-211: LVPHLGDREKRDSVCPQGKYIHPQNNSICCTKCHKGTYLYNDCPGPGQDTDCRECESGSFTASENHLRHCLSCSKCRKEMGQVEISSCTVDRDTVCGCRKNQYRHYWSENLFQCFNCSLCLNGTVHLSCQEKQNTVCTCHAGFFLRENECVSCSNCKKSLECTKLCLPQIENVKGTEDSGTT

In PMC4860709:

Biological target: tumor necrosis factor receptor 1 (UniProt P19438)
Test: SPR

## Hydrostatin-SN1 (peptide)
  Kd: 32 µM
